From publication PMC5269458 (Metallomics : integrated biometal science, 2017)
Read-outs that look alike come from different tables or passages of the source.

How the values were obtained:
[1] = depending on buffer conditions; cited from earlier work
[2] = tested on: wild-type C. neoformans H99; experiment: Growth inhibition; format: cell-based, Cryptococcus neoformans; settings: SC medium, 30 °C, 48 h
[3] = tested on: ctr1Δctr4Δ mutant strain of C. neoformans; experiment: Growth recovery of Cu-import deficient mutant in YPEG medium; format: cell-based, Cryptococcus neoformans; settings: YPEG medium without supplemental Cu, micromolar compound, 48 h
Conditional Cu [4] = format: binding
Conditional Cu [5] = format: binding; settings: pH 7.4, anaerobic
[6] = tested on: C. neoformans wild type, H99 cells; format: cell-based, Cryptococcus neoformans; settings: 10 μM ligand co-incubated with 10 μM CuSO4, 1 h, SC medium

| Molecule | pCu(II) [1] | Minimum inhibitory concentration (MIC) ([2]; no supplemental Cu ([Cu] 0 mM)) [µM] | Minimum inhibitory concentration (MIC) ([2]; supplemental [Cu] 1 mM (CuSO4)) [µM] | restoration of growth of ctr1Δctr4Δ mutant [3] | Cu(II) log KML2 (Conditional Cu [4]; conditional, universal buffer pH 7.4, competition with PAR) | pCu(II) (Conditional Cu [4]; negative log of free [Cu] at pH 7.4, total ligand 10 μM, total Cu 1 μM) | competition for Cu(I) with BCA or ferrozine (Conditional Cu [5]) | cell-associated Cu, Fe and Zn content [6] |
| --- | --- | --- | --- | --- | --- | --- | --- | --- |
| human serum albumin: a major Cu(II) carrier protein in the blood | 12–13 |  |  |  |  |  |  |  |
| [O-][n+]1ccccc1O [PyO, pyridinol-n-oxide] |  | >100 | >100 | unable to restore growth | 13.8 ± 0.1 | 9.6 | did not compete | did not dramatically alter cellular metal content |
